This passage reports IC50 results from BindingDB's records for 1315869 (Nova Pharmaceutical, 1992).

Experiment [1] addresses T1, Sigma non-opioid intracellular receptor 1 (Homo sapiens, UniProt Q99720). As to the kind of experiment: ChEBML_201751.
In experiment [2] the target is T1, Sigma non-opioid intracellular receptor 1. In words: (§1) Potency at the sigma binding site was determined in radioligand.
Experiment [3] has the same target. The description is as §1. The source holds these as a separate data set.

Regarding `O=c1cc(-c2ccccc2)oc2ccc(OCCCCCCN3CCC(n4c(=O)[nH]c5ccccc54)CC3)cc12`, the concentration for half-maximal inhibition (IC50) was determined as 347 nM in experiment [1] and 369 nM in experiment [2].
Turning to `O=C1NCN(c2ccccc2)C12CCN(CCCCCCOc1ccc3oc(-c4ccccc4)cc(=O)c3c1)CC2`, the figures for the IC50 in experiment [3] and in experiment [2] were 1900 nM and 1200 nM, respectively.
